Results published in article PMC4441536 (Journal of Medicinal Chemistry, 2015).

Protein sequences, listed by entry. Tags and fused reporters are not part of them.
UniProt P23975, whole entry: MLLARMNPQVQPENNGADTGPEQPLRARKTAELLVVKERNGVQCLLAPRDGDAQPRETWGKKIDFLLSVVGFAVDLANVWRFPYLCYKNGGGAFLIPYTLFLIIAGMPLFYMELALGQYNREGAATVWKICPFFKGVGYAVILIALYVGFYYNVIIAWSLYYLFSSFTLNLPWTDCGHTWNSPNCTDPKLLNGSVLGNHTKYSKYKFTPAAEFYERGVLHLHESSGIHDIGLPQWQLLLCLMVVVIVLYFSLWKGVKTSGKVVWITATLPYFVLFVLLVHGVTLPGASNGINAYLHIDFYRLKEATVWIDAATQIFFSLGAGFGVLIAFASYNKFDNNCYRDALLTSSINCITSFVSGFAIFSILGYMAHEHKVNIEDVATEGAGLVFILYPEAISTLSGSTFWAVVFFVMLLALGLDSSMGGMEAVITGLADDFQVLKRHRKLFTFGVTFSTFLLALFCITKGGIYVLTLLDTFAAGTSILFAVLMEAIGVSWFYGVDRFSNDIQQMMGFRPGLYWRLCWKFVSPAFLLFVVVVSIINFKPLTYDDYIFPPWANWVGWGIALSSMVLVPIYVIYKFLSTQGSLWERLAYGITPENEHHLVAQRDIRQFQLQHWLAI

Experiments:
[1] = mouse, in vivo
[2] = target: norepinephrine transporter (h) (Homo sapiens, UniProt P23975)

Structure (SMILES): Cn1cc(CCn2cnc(-c3cnn(C)c3)c2-c2ccc(C#N)cc2)cn1
- clearance [1]: ~50 % of mouse liver blood flow
- F ([1]; 5 mg/kg): 0.70
- permeation in the CaCo-2 model (CaCo-2 model): permeation

Structure (SMILES): CNCCCC1c2ccccc2C=Cc2ccccc21 [protriptyline]
- nH Ref [2]: 1.0
